# Settings: in vivo
substance,measurement,setting,value
2-pyridine aldoxime methyl chloride [2-PAM],dye localization in rat nasal cavity,,deposited primarily within this olfactory region
same,drug found in trachea or esophagus,rat,none
